# Laboratory results as given in ChEMBL document CHEMBL1136895, “NO donors. Part 18: Bioactive metabolites of GTN and PETN--synthesis and vasorelaxant properties” (2009).
# Assay: Vasorelaxant activity in pig pulmonary artery by organ bath experiment
smiles,measurement,value
O=[N+]([O-])OCC(CO[N+](=O)[O-])O[N+](=O)[O-],EC50,27 nM

# Some compounds may have been tested in ways that are not shown here.
